In patent US12030868B2, “Prodrugs of CGRP antagonists” (Pfizer Ireland Pharmaceuticals, priority 2018, dated 2024):

System: Caco-2 cells
Assay: Caco-2 permeability assay
Assay type: in vitro ADME, human
Conditions: Caco-2 monolayer, donor 10 μM, 90 minutes, 37° C., pH 7.4
Description: Caco-2 Permeability Assay
• The Caco-2 monolayer is widely used across the pharmaceutical industry as an in vitro model of the human small intestinal mucosa to predict the absorption of orally administered drugs.^1-4 • The Caco-2 cell model mimics processes such as transcellular transport, paracellular transport, and some aspects of efflux and active transport. • Readout: Papp (A→B), Papp (B→A), Efflux ratio, % Recovery • Controls: with and without Pgp inhibitor; Atenolol, Propanolol, Taxel-1 Assay Description:
The Caco-2 cells are cultured to confluency, trypsinized and seeded onto a filter transwell insert at a density of ^˜32,000 cells/well in DMEM cell culture medium. […]
At the end of the incubation, samples are taken from both donor and receiver compartments and transferred into 96-well assay plates containing internal standard solution (IS) in each well. After centrifugation, the supernatant solutions are transferred to clean 96 well plates and analyzed by LC-MS/MS. […] Each compound is analyzed by reversed phase HPLC.
The parameters Papp (apparent permeability) and efflux ratio are calculated as follows: Papp=(dQ/dt)×(1/C0)×(1/A) Efflux ratio=Papp[B→A]/Papp[A→B] • where dQ/dt is the permeability rate, C0 is the initial concentration in the donor compartment, and A is the surface area of the cell monolayer (0.33 cm^2). The Papp value is a rate measured in cm/s. […]

(R)-(7-methyl-5-(3-(4-(1-methylpiperidin-4-yl)piperazin-1-yl)-3-oxo-2-(4-(2-oxo-1,2-dihydroquinolin-3-yl)piperidine-1-carboxamido)propyl)-1H-indazol-1-yl)methyl decanoate and (R)-(7-methyl-5-(3-(4-(1-methylpiperidin-4-yl)piperazin-1-yl)-3-oxo-2-(4-(2-oxo-1,2-dihydroquinolin-3-yl)piperidine-1-carboxamido)propyl)-2H-indazol-2-yl)methyl decanoate [Example 53]
Papp A-B (apical to basolateral): 0.31 ×10⁻⁶ cm/s
Papp B-A (basolateral to apical): 4.1 ×10⁻⁶ cm/s
